From patent publication US7288537B2, “Azetidine derivatives as CCR-3 receptor antagonists” (Novartis AG, priority 2002, dated 2007)

The chains behind the UniProt entries cited, without tags or fusion partners.
UniProt P51677, whole entry: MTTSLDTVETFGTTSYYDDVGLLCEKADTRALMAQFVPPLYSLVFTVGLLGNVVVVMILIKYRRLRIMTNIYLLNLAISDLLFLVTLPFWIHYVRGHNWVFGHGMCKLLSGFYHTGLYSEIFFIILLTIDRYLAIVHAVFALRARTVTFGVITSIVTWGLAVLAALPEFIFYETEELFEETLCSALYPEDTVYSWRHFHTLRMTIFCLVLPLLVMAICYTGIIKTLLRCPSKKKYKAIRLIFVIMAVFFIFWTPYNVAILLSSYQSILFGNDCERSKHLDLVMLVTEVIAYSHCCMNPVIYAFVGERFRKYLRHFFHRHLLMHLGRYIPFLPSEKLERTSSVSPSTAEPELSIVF

Target: human CCR-3 (Homo sapiens, UniProt P51677)
Assay: CCR-3 binding assay (SPA, [125I]-human eotaxin)
Details: read-out: IC50, inhibition of binding of human eotaxin to human CCR-3, membranes of RBL-2H3 cells stably expressing CCR3, 4 hours at room temperature
Protocol: In this assay the effect of agents of the invention on the binding of human eotaxin to human CCR-3 is determined. Recombinant cells expressing human CCR-3 are captured by wheatgerm agglutinin (WGA) polyvinyltoluidene (PVT) SPA beads (available from Amersham), through a specific interaction between the WGA and carbohydrate residues of glycoproteins on the surface of the cells. [^125I]-human eotaxin (available from Amersham) binds specifically to CCR-3 receptors bringing the [^125I]-human eotaxin in close proximity to the SPA beads. Emitted â-particles from the [^125I]-human eotaxin excite, by its proximity, the fluorophore in the beads and produce light.
Preparation of Assay Buffer: 5.96 g HEPES and 7.0 g sodium chloride are dissolved in distilled water and 1M aqueous CaCl2 (1 ml) and 1M aqueous MgCl2 (5 ml) are added. The pH is adjusted to 7.6 with NaOH and the solution made to a final volume of 1 L using distilled water. 5 g bovine serum albumin and 0.1 g sodium azide are then dissolved in the solution and the resulting buffer stored at 4° C. A Complete™ protease inhibitor cocktail tablet (available from Boehringer) is added per 50 ml of the buffer on the day of use.
Preparation of Homogenisation Buffer: Tris-base (2.42 g) is dissolved in distilled water, the pH of the solution is adjusted to 7.6 with hydrochloric acid and the solution is diluted with distilled water to a final volume of 1 l. The resulting buffer is stored at 4° C. A Complete™ protease inhibitor cocktail tablet is added per 50 ml of the buffer on the day of use.
Preparation of membranes: Confluent rat basophil leukemia (RBL-2H3) cells stably expressing CCR3 are removed from tissue culture flasks using enzyme-free cell dissociation buffer and resuspended in phosphate-buffered saline. The cells are centrifuged (800 g, 5 minutes), the pellet resuspended in ice-cold homogenisation buffer using 1 ml homogenisation buffer per gram of cells and incubated on ice for 30 minutes. The cells are homogenised on ice with 10 strokes in a glass mortar and pestle. The homogenate is centrifuged (800 g, 5 minutes, 4° C.), the supernatant further centrifuged (48,000 g, 30 minutes, 4° C.) and the pellet redissolved in Homogenisation Buffer containing 10% (v/v) glycerol. The protein content of the membrane preparation is estimated by the method of Bradford (Anal. Biochem. (1976) 72:248) and aliquots are snap frozen and stored at −80° C.
The assay is performed in a final volume of 250 μl per well of an Optiplate™ microplate (ex Canberra Packard). […] The resulting scintillations are counted using a Canberra Packard TopCount™ scintillation counter, each well being counted for 1 minute. […]

| IC50 [nM] | Structure (SMILES) |
| --- | --- |
| 11 | Cc1ccc(NC(=O)NC(CO)CCN2CC(Oc3ccc(Cl)cc3)C2)cc1 (stereo not shown) |
| 18 | COc1cc(NC(=O)NC(CO)CCN2CC(C(=O)c3ccc(Cl)cc3)C2)cc(OC)c1 (stereo not shown) |
| 2 | CCc1cc(NC(=O)N[C@H](CO)CCN2CC(Oc3ccc(Cl)cc3)C2)n(C(C)(C)C)n1 |
| 12 | Cn1nc(C2CC2)cc1NC(=O)N[C@H](CO)CCN1CC(Oc2ccc(Cl)c(Cl)c2)C1 |
